Counter-ions that a name gives are not always drawn. Each block holds one compound with its values, some of them ahead of it. Activity calls are given as the source filed them.
Columns and labels:
[1] = target: T1, E3 ubiquitin-protein ligase XIAP (Homo sapiens, UniProt P98170); assay: SAR analysis of Antagonists of IAP-family anti-apoptotic proteins. [Related pubchem assays (depositor defined):AID1018, AID1449, AID1513, AID1514, AID1638]
[2] = target: T1, E3 ubiquitin-protein ligase XIAP; assay: SAR analysis of Antagonists of XIAP-Bir3 domain of IAP-family anti-apoptotic proteins. [Related pubchem assays (depositor defined):AID1018, AID1449, AID1513, AID1514, AID1638]
[3] = target: T2, Mannose-6-phosphate isomerase (Homo sapiens, UniProt P34949); assay: phosphomannose isomerase inhibition – biochemical, fluorescence intensity, confirmation (AID 1535)
T2 sequence (P34949 whole entry): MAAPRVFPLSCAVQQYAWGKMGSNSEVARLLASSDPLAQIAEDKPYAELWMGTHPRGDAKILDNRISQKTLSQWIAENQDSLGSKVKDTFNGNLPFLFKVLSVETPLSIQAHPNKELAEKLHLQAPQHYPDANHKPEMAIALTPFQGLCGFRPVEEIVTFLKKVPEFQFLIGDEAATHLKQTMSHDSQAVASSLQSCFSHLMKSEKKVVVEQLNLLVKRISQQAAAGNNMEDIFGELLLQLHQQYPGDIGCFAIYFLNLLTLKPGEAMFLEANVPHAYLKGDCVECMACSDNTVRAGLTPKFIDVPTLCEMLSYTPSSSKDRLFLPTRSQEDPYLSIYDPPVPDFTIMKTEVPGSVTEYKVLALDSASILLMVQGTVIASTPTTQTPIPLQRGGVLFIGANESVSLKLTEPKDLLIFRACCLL

By UniProt entry, the sequences of proteins in these tests, tags left out.
UniProt P98170, whole entry: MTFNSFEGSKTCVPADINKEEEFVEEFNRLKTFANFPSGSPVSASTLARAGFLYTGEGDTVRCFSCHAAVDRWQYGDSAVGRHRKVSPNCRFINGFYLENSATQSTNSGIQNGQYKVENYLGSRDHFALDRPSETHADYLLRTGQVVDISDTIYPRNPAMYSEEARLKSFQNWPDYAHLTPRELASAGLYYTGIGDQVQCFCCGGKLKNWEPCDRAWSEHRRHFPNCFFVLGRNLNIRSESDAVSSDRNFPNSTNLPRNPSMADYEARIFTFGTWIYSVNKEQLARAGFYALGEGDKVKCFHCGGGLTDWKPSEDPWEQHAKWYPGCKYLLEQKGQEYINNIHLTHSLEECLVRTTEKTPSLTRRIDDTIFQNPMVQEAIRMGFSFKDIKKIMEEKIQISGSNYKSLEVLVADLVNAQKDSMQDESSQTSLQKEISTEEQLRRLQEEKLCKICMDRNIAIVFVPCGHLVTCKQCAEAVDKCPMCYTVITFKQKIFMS
UniProt P35363, whole entry: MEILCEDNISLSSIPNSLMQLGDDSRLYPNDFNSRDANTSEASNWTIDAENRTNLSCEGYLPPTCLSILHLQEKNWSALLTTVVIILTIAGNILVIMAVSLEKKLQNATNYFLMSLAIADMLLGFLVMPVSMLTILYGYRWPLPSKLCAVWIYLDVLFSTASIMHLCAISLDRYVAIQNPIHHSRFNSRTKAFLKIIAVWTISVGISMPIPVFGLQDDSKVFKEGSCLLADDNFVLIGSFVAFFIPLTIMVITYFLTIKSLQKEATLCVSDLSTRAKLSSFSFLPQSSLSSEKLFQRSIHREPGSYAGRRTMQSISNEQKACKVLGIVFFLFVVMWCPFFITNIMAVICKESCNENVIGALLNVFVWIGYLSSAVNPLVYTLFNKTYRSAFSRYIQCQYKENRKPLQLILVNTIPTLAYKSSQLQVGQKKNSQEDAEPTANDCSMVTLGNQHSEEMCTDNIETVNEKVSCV
UniProt P35372, whole entry: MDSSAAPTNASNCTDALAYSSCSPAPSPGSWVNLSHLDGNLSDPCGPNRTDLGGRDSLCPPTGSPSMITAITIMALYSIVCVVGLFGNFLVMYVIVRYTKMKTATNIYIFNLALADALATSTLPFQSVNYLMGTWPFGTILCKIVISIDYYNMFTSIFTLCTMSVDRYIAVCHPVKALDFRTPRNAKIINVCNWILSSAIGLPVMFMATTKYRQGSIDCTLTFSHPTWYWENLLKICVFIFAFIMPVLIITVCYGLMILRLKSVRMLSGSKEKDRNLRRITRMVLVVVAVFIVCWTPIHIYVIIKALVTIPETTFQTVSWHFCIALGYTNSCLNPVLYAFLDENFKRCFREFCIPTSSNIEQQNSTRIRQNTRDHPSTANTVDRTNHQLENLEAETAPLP

[4] = target: 5-hydroxytryptamine receptor 2A (Mus musculus, UniProt P35363); format: functional, cell-based;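 also: CHO-K1 cells with tagged receptor and beta-arrestin; agonist potency measured as compound-induced activation of the receptor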
Mu-type opioid receptor = Mu-type opioid receptor (Homo sapiens, UniProt P35372); format: functional, cell-based;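 also: U2OS cells with beta-arrestin recruitment to OPRM1 by beta-gal complementation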

- IC50 [1]: inactive: > 100 µM
- IC50 [2]: active: 76.5 µM
SMILES: CC(C)[C@H](NC(=O)[C@@H](C)N)C(=O)N1CCC[C@H]1C(=O)NC(c1ccccc1)c1ccccc1

SMILES: O=c1c2ccccc2sn1-c1ccc(Cl)cc1
- IC50 [3]: active: 2.45 µM

SMILES: O=C1CCc2ccc(OCCCCN3CCN(c4cccc(Cl)c4Cl)CC3)cc2N1 [ARIPIPRAZOLE]
- EC50 [4]: active: 8.39 µM

SMILES: CNC[C@H](O)c1ccc(O)c(O)c1 [EPINEPHRINE BITARTRATE]
- EC50 (Mu-type opioid receptor): inactive: 92.5 µM

SMILES: CNCC(O)c1ccc(O)c(O)c1 (stereo unspecified) [RACEPINEPHRINE HYDROCHLORIDE]
- EC50 (Mu-type opioid receptor): inactive: 92.6 µM
